Results: patent US20200291018A1, “TAM KINASE INHIBITORS” (SYROS PHARMACEUTICALS, INC., priority 2017, published 2020)

Protein sequences, listed by entry. Tags and fused reporters are not part of them. Residues count along the entry.
UniProt Q12866, 21-999 limits assumed: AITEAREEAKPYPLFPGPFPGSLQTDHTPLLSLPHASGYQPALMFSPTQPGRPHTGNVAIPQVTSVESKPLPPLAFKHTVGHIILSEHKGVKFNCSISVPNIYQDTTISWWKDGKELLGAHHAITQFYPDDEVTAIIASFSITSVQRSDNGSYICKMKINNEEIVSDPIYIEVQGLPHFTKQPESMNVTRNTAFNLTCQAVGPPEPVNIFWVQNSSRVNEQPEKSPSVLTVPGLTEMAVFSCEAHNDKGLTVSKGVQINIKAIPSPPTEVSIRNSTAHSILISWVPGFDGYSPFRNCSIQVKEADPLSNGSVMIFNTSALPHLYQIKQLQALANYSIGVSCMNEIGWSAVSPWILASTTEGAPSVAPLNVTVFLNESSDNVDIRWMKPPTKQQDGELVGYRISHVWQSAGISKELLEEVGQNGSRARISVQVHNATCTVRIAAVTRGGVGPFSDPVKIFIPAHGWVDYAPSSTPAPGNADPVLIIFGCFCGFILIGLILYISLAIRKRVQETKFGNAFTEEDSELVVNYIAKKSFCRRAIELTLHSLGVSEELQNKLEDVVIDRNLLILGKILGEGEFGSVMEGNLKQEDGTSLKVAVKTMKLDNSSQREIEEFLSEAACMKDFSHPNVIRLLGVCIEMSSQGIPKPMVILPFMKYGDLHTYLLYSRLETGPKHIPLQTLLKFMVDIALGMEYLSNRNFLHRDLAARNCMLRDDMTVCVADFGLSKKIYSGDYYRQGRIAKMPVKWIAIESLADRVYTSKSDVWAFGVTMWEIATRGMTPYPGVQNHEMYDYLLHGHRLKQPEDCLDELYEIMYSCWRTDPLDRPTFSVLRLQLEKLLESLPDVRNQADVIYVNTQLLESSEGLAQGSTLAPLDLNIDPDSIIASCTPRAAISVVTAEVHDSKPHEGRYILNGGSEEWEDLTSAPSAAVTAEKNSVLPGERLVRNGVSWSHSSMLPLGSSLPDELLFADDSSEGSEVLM
UniProt P36888, 27-993 limits assumed: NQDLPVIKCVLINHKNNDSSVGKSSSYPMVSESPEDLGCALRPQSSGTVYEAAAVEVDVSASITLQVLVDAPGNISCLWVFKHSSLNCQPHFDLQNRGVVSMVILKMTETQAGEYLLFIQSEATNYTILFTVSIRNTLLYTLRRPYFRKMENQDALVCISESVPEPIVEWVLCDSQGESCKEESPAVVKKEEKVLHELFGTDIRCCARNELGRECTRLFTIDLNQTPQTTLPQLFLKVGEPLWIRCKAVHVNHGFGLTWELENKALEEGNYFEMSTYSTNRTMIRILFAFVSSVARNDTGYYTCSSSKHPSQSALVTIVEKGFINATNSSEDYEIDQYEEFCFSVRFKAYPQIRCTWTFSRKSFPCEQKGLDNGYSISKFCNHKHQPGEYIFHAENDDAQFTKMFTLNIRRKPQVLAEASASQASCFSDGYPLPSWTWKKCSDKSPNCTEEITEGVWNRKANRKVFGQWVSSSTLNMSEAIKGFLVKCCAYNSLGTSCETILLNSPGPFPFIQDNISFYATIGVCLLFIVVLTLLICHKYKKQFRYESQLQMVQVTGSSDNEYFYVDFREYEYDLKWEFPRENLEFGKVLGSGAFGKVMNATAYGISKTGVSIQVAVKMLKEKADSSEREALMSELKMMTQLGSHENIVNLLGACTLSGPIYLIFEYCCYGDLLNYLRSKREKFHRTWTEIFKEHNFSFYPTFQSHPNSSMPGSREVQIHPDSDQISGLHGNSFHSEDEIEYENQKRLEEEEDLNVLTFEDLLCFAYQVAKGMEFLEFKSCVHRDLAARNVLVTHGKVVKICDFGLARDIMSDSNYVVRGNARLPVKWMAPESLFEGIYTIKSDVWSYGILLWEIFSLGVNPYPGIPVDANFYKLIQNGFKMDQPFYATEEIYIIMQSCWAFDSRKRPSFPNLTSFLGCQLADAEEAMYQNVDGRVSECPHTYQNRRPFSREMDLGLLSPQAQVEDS
UniProt P30530, 26-894 limits assumed: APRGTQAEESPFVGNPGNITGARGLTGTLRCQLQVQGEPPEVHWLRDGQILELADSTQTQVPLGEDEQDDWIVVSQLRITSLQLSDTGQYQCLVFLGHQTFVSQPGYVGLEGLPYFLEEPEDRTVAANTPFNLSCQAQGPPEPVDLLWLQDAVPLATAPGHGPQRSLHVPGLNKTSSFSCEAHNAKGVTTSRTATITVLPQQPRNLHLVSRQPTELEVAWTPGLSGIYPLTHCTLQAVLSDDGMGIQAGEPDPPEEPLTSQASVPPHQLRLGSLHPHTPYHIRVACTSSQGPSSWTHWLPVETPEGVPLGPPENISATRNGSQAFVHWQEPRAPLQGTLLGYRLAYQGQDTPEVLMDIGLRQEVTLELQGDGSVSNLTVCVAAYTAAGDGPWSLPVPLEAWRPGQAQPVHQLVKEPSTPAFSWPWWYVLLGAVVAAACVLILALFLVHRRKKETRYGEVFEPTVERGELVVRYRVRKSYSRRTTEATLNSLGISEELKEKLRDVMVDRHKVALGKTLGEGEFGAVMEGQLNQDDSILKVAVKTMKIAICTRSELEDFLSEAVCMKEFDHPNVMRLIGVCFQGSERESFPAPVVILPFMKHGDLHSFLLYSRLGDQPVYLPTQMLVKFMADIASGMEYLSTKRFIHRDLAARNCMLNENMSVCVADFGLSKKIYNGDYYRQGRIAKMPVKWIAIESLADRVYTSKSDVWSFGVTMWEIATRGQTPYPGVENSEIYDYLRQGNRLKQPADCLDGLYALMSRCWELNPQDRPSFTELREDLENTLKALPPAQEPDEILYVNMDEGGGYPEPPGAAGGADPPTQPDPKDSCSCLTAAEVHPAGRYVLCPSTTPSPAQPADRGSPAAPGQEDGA
UniProt Q06418, 41-890 limits assumed: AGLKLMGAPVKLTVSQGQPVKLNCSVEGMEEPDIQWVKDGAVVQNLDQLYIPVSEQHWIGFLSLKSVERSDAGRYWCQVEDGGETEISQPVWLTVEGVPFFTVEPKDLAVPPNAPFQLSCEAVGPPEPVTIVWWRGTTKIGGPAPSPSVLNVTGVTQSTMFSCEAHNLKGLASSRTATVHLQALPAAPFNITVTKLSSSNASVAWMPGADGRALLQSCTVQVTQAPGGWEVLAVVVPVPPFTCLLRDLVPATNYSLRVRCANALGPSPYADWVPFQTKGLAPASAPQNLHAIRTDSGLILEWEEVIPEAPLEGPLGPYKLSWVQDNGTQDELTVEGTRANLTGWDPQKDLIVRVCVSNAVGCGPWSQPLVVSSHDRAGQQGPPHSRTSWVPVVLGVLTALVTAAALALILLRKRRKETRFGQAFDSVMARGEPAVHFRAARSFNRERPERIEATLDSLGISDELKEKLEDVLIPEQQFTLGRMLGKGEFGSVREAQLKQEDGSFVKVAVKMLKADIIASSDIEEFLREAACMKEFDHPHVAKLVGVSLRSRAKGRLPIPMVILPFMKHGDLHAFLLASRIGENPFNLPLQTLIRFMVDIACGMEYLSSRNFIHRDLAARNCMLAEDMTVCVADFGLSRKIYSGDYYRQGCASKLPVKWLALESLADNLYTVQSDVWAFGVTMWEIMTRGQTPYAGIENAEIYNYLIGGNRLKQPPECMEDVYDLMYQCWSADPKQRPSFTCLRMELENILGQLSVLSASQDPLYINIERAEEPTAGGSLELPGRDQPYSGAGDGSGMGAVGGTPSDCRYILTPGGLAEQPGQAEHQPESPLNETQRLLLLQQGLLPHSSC

What was measured:
MERTK = MERTK (Homo sapiens, UniProt Q12866); experiment: TR-FRET kinase activity assay, MERTK; settings: tested form: HCl
Protocol: (§1) IC50 values for compound inhibition of AXL, FLT3, MERTK and TYRO3 activity were determined using a TR-FRET activity assay. A peptide substrate with a fluorescent label is phosphorylated on a tyrosine by each enzyme, where the now phosphorylated product is bound by a Europium-labeled antibody specific to that phosphorylation site. The proximity between the antibody and the substrate gives a signal known as TR-FRET. As the enzyme is inhibited by compound, less phosphorylated peptide product is made, causing a decrease in overall signal.
(§2) Activity assays were performed in a 384-well, small volume, black microplates in an active enzyme volume of 10 uL and final developed volume of 20 uL. Final assay conditions are 50 mM HEPES pH 7.5, 10 mM MgCl2, 1 mM EGTA, 0.01% Brij 35 and 1 mM DTT, all at RT. Enzyme, substrate-labeled peptide and compound are mixed, and then the reaction is initiated with the addition of ATP at Km concentration for each enzyme. The reaction is allowed to run 60 minutes and then quenched with a 12.5 mM EDTA (ethylenediamine tetraacetic acid) solution. The plate is then developed with the addition of Europium-labeled antibody for a final volume of 20 uL and is then incubated for 30 minutes in darkness. Plates are read in a PHERASTAR® plate reader. Data are analyzed in GraphPad PRISM.

FLT3 = FLT3 (Homo sapiens, UniProt P36888); experiment: TR-FRET kinase activity assay, FLT3; settings: read-out: Flt3 IC50, ATP at Km, 60 minutes, tested form: HCl
Protocol: as §1, §2

AXL = AXL (Homo sapiens, UniProt P30530); experiment: TR-FRET kinase activity assay, AXL; settings: read-out: Axl IC50, ATP at Km, 60 minutes, tested form: HCl
Protocol: as §1, §2

TYRO3 = TYRO3 (Homo sapiens, UniProt Q06418); experiment: TR-FRET kinase activity assay, TYRO3; settings: read-out: Tyro3 IC50, ATP at Km, 60 minutes, tested form: HCl
Protocol: as §1, §2

## CCCCNc1ncc2c(=O)n(C3CCN(C)CC3)cc([C@H]3CC[C@H](O)CC3)c2n1
MERTK; ratio calculated as FLT3 IC50/Mer IC50
  Mer/Flt3 ratio (FLT3 IC50/Mer IC50): + (a ratio of >2.0 and <10)
MERTK; read-out: Mer IC50, TR-FRET activity assay, ATP at Km, 60 minutes
  IC50: < 100 nM
FLT3
  IC50: < 100 nM
AXL
  IC50: 100 to 1000 nM
TYRO3
  IC50: < 100 nM
